# Publication PMC11823594, “Durlobactam in combination with β-lactams to combat Mycobacterium abscessus” (Antimicrobial Agents and Chemotherapy, 2024)
# The chains behind the UniProt entries cited, without tags or fusion partners.
# UniProt B1MM58, entry or part of it: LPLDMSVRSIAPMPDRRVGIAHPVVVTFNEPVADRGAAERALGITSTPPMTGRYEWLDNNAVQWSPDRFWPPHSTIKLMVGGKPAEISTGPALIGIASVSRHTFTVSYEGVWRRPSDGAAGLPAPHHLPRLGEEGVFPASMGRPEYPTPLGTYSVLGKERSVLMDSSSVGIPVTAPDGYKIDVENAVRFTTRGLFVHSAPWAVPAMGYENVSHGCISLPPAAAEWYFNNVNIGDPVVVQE
# UniProt B1MP31, entry or part of it: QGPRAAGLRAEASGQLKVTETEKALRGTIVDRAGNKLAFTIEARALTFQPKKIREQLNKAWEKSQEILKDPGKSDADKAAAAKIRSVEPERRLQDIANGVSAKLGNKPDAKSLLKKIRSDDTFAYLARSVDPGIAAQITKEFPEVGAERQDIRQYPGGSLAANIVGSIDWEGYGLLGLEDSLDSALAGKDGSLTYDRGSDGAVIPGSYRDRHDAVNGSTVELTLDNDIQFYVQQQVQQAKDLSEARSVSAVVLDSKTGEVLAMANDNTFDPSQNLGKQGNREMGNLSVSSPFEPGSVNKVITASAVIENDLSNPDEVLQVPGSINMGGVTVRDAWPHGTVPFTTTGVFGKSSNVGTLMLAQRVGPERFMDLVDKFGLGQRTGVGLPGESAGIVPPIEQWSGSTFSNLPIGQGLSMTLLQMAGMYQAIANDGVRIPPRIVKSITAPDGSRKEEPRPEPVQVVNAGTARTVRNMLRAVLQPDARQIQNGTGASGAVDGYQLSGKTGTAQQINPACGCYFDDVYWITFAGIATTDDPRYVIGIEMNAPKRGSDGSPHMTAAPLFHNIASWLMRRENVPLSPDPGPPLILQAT
# UniProt B1MDJ1, entry or part of it: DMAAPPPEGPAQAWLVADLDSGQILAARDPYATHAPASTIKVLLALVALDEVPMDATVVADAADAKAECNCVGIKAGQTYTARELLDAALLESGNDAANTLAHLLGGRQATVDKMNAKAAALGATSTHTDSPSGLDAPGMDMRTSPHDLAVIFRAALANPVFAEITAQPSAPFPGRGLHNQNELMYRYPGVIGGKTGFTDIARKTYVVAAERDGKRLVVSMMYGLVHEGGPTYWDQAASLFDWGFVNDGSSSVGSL
# UniProt B1MDC3, entry or part of it: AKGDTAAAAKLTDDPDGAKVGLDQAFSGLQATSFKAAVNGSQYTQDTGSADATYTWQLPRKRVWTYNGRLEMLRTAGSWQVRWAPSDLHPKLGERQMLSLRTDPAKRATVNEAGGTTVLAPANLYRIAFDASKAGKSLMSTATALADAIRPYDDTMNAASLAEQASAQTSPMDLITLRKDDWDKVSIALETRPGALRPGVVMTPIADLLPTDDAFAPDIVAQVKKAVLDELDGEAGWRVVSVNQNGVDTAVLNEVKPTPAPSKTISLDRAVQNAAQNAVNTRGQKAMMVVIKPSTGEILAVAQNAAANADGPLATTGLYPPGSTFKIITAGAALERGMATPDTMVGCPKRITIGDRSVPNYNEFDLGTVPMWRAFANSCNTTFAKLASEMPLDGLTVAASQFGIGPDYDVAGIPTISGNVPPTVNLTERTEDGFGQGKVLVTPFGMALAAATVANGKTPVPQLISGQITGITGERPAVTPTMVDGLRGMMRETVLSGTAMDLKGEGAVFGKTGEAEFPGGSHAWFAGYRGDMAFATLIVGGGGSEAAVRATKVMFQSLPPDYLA
# What was measured:
# LDT5 = LDT5 (Mycobacterium abscessus, UniProt B1MM58); assay: Steady-state kinetics with nitrocefin (Ki,app); type: biochemical; details: in parentheses in Table 3
# PBP B = PBP B (Mycobacterium abscessus, UniProt B1MP31); assay: Steady-state kinetics with nitrocefin (Ki,app); type: biochemical; details: in parentheses in Table 3;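 further: Parenthesised value is the fCss,avg to Ki,app ratio where above 1 means target likely hit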
# DDC [1] = target: T1, DDC (Mycobacteroides abscessus, UniProt B1MDJ1); assay: Mass spectrometry of covalent adduct formation; type: binding; details: protein:drug 1:20, 2 h; mass accuracy ±5 Da; (−) = no change
# PBP-lipo = target: T2, PBP-lipo (Mycobacteroides abscessus, UniProt B1MDC3); assay: Steady-state kinetics with nitrocefin (Ki,app); type: biochemical; details: in parentheses in Table 3
# T2 construct: made in house; host or cells: Escherichia coli BL21 (DE3)
# DDC [2] = target: T1, DDC; assay: Steady-state kinetics with nitrocefin (Ki,app); type: biochemical; details: in parentheses in Table 3;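 further: Parenthesised value is the fCss,avg to Ki,app ratio where above 1 means target likely hit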
structure (smiles),measurement,setting,value
"CC1(C)S[C@@H]2[C@H](NC(=O)[C@H](N)c3ccc(O)cc3)C(=O)N2[C@H]1C(=O)O [Amoxicillin, amoxicillin]","Ratio of fCss,avg to Ki,app, LDT5",LDT5,1.2
same,"Ratio of fCss,avg to Ki,app, PBP B",PBP B,2
same,"Observed MW (+ change in mw), DDC (26,788)",DDC [1],"27,156 (+366) Da"
same,"Ratio of fCss,avg to Ki,app, PBP-lipo",PBP-lipo,60
same,"Ratio of fCss,avg to Ki,app, DDC",DDC [2],150
